Measured values from US20240293418A1, “COMBINATION THERAPY FOR TREATING CANCER” (Epizyme, Inc., priority 2016, published 2024).

How the values were obtained:
[1] = system: KMS-28-BM; assay: 7 day pretreatment + 4-day co-treatment combination model (Cell Titer Glo); settings: second agent + tazemetostat, KMS-28-BM t(4;14)
[2] = system: L-363; assay: as above; settings: second agent + tazemetostat, L-363 t(20;22)
[3] = system: LP-1; assay: 7-day co-treatment combination model (Cell Titer Glo); settings: second agent + tazemetostat, LP-1 t(4;14)
[4] = system: MM1.S; assay: as above; settings: second agent + tazemetostat
[5] = system: U266; assay: 7 day pretreatment + 4-day co-treatment combination model (Cell Titer Glo); settings: second agent + tazemetostat, U266 t(11;14)
[6] = system: LP-1; assay: as above; settings: second agent + tazemetostat, LP-1 t(4;14)

SMILES | combinatorial effect by Loewe volumes [1] | combinatorial effect by Loewe volumes [2] | combinatorial effect by Loewe volumes [6] | also measured
N[C@@H](Cc1ccc(N(CCCl)CCCl)cc1)C(=O)O [Melphalan, melphalan] | S (Synergy) | A (Additive) |  | 
CC(C)C[C@H](NC(=O)[C@H](Cc1ccccc1)NC(=O)c1cnccn1)B(O)O [Bortezomib, bortezomib] |  |  | S (Synergy) | combinatorial effect by Loewe volumes [3]: A (Additive); Loewe volume [4]: 0.508; combinatorial effect by Loewe volumes [5]: S (Synergy)
O=C1CCC(N2C(=O)c3ccccc3C2=O)C(=O)N1 (stereo not shown) [Thalidomide, thalidomide] |  |  | A (Additive) | 
Cn1c(CCCC(=O)O)nc2cc(N(CCCl)CCCl)ccc21 [Bendamustine, bendamustine] |  | A (Additive) | A (Additive) | 
CC[C@]1(O)C[C@H]2CN(CCc3c([nH]c4ccccc34)[C@@](C(=O)OC)(c3cc4c(cc3OC)N(C=O)[C@H]3[C@@](O)(C(=O)OC)[C@H](OC(C)=O)[C@]5(CC)C=CCN6CC[C@]43[C@@H]65)C2)C1 [Vincristine, vincristine] | A (Additive) |  |  | 
